# Assay results from ChEMBL document CHEMBL4699582, “Discovery of OATD-01, a First-in-Class Chitinase Inhibitor as Potential New Therapeutics for Idiopathic Pulmonary Fibrosis” (J Med Chem, 2020).
# Activity calls are given as the source filed them. No cut-off for these calls is given here.
# Tested on: Mus musculus
# Test: Antifibrotic activity in bleomycin-induced C57BL/6N mouse model of pulmonary fibrosis assessed as reduction in lung-fibrosis at 100 mg/kg, po qd administered from 7th day post-bleomycin challenge and measured post last dose
# Assay type: functional, organism-based
smiles,measurement,value
COC(=O)c1ccc2c(c1)NC(=O)/C2=C(\Nc1ccc(N(C)C(=O)CN2CCN(C)CC2)cc1)c1ccccc1,Activity,Active
